Publication PMC8623647 (Pharmaceuticals, 2021)

Assay: BBB permeation by parallel artificial membrane permeability assay (PAMPA)
Type: in vitro ADME

SMILES: NCCc1ccc(O)c(O)c1 [Dopamine, reference compound]
- Experimental Pe: 0.22 ± 0.01 ×10^−6 cm·s^−1
